We go through 1 molecule from article PMC3325286, “Structural and Functional Diversity of Acidic Scorpion Potassium Channel Toxins” (PLoS ONE, 2012).

The target of experiment [1] is T1, KCNQ1 channel (Homo sapiens, UniProt P15382+P51787).
The next experiment has as its system Kv1.x channel. To be noted: cited from earlier work.
For experiment [2], the target named is T1, KCNQ1 channel. Briefly: cell-based. To be noted: HEK293, read-out: Inhibition of KCNQ1 channel current.
The next experiment deals with SKCa channel. The following applies: cited from earlier work.

For the molecule `CC(C)[C@@H]1NC(=O)[C@@H]2CSSC[C@@H]3NC(=O)[C@H](CC(=O)O)NC(=O)[C@H](CCC(=O)O)NC(=O)[C@@H](NC(=O)[C@@H](NC(=O)[C@H](C)N)[C@@H](C)O)CSSC[C@H](NC(=O)[C@H](CCCCN)NC(=O)[C@H](C)NC(=O)[C@H](CCCNC(=N)N)NC(=O)[C@H](C)NC(=O)[C@H](CC(N)=O)NC(=O)[C@H](CCC(N)=O)NC(=O)[C@H]([C@@H](C)O)NC(=O)[C@H](C)NC(=O)[C@H](CSSC[C@@H](C(=O)N[C@@H](CCC(=O)O)C(=O)N4CCC[C@H]4C(=O)N[C@@H](CCCCN)C(=O)O)NC1=O)NC(=O)[C@H](Cc1c[nH]cn1)NC(=O)[C@H](CCC(=O)O)NC(=O)[C@@H]1CCCN1C3=O)C(=O)N[C@@H](CC(=O)O)C(=O)N[C@@H](CC(N)=O)C(=O)N[C@@H](CC(=O)O)C(=O)N[C@@H](CCCCN)C(=O)N2` [BmP01, reference compound], the “Effect on KCNQ1 channel (in words)” value at KCNQ1 channel [1] is given as “only weak inhibitors”. For the same molecule, in the experiment on Kv1.x channel, the “Block of Kv1.x channel (in words)” value is “low activity (micromolar range)”. Moreover, the inhibition at 10 µM on KCNQ1 channel [2] came out at 4.82%. Further, the “Inhibition of SKCa channel (in words)” value with SKCa channel is “weakly inhibits”.
